Earlier results as cited in article PMC12197660 (Viruses, 2025).

Conditions: read-out: Plasma GS-441524 Cmax; GS-441524 IV 30 min infusion 20 mg/kg; mean ± SD, N = 3; cited from earlier work

N#C[C@@]1(c2ccc3c(N)ncnn23)O[C@H](CO)[C@@H](O)[C@H]1O [GS-441524]
Cmax: 79.2 µM
